The results in this text go back to patent US8105608B2, “Method of treatment using ligand-immunogen conjugates” (Purdue Research Foundation, priority 2000, dated 2012).

In this experiment the test system is M109 cells. In words: Survival of mice with M109 cells implanted intraperitoneally close to the liver. In kind it is in vivo.

Take “IL-2: recombinant human IL-2, cytokine to stimulate the immune system”: the “long term survival, comparison of cytokine treatments” value (Example 5, after 2 doses of 1500 nmol/kg folate-FITC days 4 and 7, IL-2 5000 IU days 8-12, IFN-α 2.5×10^4 U/day, IL-12 0.5 μg/day, TNF-α 2 μg/day) is “more effective at promoting long term survival of animals than was combination treatment with IL-2 and IL-12 or with IL-2 and TNF-α”. Besides, under “Example 7, folate-FITC 1500 nmoles/kg, IL-2 5000 IU, n=8, control 18 days”, the median survival time was found to be 19 days. For the same substance, under “Example 7, folate-FITC 1500 nmoles/kg, low-dose IL-2”, the “effect on long-term survival of tumor-bearing mice” value is reported as “negligible effect”. Moreover, the “median survival time, effect of IL-2 dose” value (Example 10, folate-FITC 1500 nmoles/kg with IL-2 5×10^3 to 5×10^5 IU days 7, 8, 9, 11, 14, FITC-KLH immunized) was “no substantial difference”.
